Data from paper PMC6324732 (Cancer immunology research, 2018).
Read-outs that look alike come from different tables or passages of the source. Values belong to the molecule of their own block, whether it stands above or below them.

Columns and labels:
[1] = target: HLA-A*02:01 heavy chain / β2-microglobulin (human); assay: differential scanning fluorimetry
[2] = target: biotinylated HLA-A*02:01 heavy chain / β2-microglobulin (human); assay: bead-based flow cytometry dissociation time course
[3] = target: biotinylated HLA-A*02:01 heavy chain / β2-microglobulin (human); assay: bead-based flow cytometry dissociation time course; remark: listed apart in the source

- Tm of the peptide/HLA-A2 complex [1]: 59.3 °C
Molecule: MART-1 anchor-modified 10-mer peptide …

- half-life of the complex at 37°C [2]: 14.7 h
- half-life of the complex at 37°C [3]: 15.1 h
B1: WT-1 peptide … (Wilms tumor antigen) (peptide)
peptide: RMFPNAPYL
